Test results reported in PubChem BioAssay AID434973 (Sanford-Burnham Center for Chemical Genomics, 2010).
The entries are a selection whose mix differs from that of the whole data set. The source made the active and inactive calls.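 The calls were made as follows: active = inhibition above about 50% at the single test dose (limit read from the data); inactive = the rest.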

The chains behind the UniProt entries cited, without tags or fusion partners. Residues count along the entry.
UniProt Q9BQF6, 706-1050 limits assumed: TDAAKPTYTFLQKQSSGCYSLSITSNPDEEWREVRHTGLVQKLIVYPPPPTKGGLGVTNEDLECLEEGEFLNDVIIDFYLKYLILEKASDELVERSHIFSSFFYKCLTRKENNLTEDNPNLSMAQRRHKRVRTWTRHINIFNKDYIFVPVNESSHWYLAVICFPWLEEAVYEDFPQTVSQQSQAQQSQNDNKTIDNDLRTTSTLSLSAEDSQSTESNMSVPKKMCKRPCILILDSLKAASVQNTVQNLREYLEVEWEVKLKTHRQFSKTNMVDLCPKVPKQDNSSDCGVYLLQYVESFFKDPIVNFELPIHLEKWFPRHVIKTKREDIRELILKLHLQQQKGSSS

Each compound was assayed against Sentrin-specific protease 7 (Homo sapiens) (UniProt Q9BQF6) (assay: blockers of human SENP7 peptidase activity – biochemical, luminescence, uHTS, primary screen (AID 434973;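 also: plate controls were DMSO with enzyme for no effect and no enzyme buffer wells for full effect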)). Conditions: recombinant SENP7, Z-RLRGG-aminoluciferin luminescence, 40 min; at 5 µM; hits give high values.
In the case of `CC(C)=N/N=C(\N)N[N+](=O)[O-]`, the inhibition is reported as inactive: 10.7%.
